Screens as filed in PubChem.
Only some compounds are listed: those with a hit (about 2.8% of all), similar ones and a draw of the others.
esBAF inh: Bmi1 luciferase reporter increase in mESCs, primary screen, esBAF inhibitor project, mouse ES cells, Bmi1 luciferase knock-in, single point; reporter increase, % at 12.5 µM; AID 602393, 2012; 24 h; 100% = twice the neutral-well signal; hit rate 2% among 350,000; in the data active = activation above about 40%; inconclusive = no clear call, values can overlap the other calls;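 note: 0% = median of the plate's neutral control wells and 100% = double that signal; a rise in the Bmi1 reporter signal indicates esBAF inhibition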
E-sel inducer: E-selectin induction in HUVECs, primary screen, imaging, HUVEC, immunofluorescence imaging, single point; P16581; normalized: neutral wells 0, TNF-alpha wells 100; activation, % at 7.58 µM; hit rate 0.37% among 260,000;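 active = mean E-selectin-positive cell signal at least 10% of the positive control, reached in at least 60% of replicates, without over 20% cell loss; inconclusive = no rule given, readout overlaps actives, possibly toxicity-flagged; inactive = the rest, including those meeting only one limit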
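Assay system: HUVEC primary endothelial cells. Input: 3,000 HUVEC seeded per well. Doses: one compound dose added by pin transfer. Read-out basis: % PE-positive cells. Benchmarks: TNF-alpha high, DMSO low. Detection: immunofluorescence imaging. Buffer or medium: EGM-2, gelatin.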
C2C12 statin: suppressors of statin myotoxicity in C2C12 myotubes, primary screen, cell-based, single point, plate reader; C2C12 myotubes + simvastatin, ATP luminescence, 48 h; scaled: DMSO 0, geranylgeraniol control 100; rescue of ATP level, % at 7.49 µM; hit rate 0.78% among 330,000; AID 602340, 2012;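 active = mean ATP rescue above about 67%, or every replicate alone reaching that limit, limit read from the data, passing the limit was not always enough; inconclusive = no clear call, values can overlap the other calls; inactive = mean under the limit and some replicate under it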;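 note: myotubes were challenged with 10 µM simvastatin during compound exposure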
PglD DTNB: C. jejuni PglD acetyltransferase inhibitors, primary screen, biochemical, DTNB colorimetric, single point | purified PglD enzyme, DTNB colorimetric CoA detection | hit rate 0.098% among 360,000 | UDP-N-acetylbacillosamine N-acetyltransferase PglD (Campylobacter jejuni) | inhibition, % at 12.5 µM | AID 602405, 2012; in the data active = inhibition above about 16%, passing the limit was not always enough; inconclusive = no clear call, values can overlap the other calls
PGC1a acetyl inh: inhibitors of PGC1a acetylation signal, primary screen, cell-based, U2OS, AlphaScreen, inhibitor mode; AlphaScreen anti-acetyl-lysine; with virally co-expressed GCN5 acetyltransferase; inhibition, % at 15.6 µM; hit rate 0.17% among 350,000;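 active = every replicate shows inhibition of at least 40%; inconclusive = mean inhibition at least 40% but some replicate below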;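 note: 0% = neutral control wells and 100% = positive control wells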
Yeast UUG start: modulators of yeast start codon fidelity, primary screen, whole organism, S. cerevisiae, single point, plate reader; S. cerevisiae UUG-firefly luciferase reporter, luminescence/redox ratio; activity score, % at 18.7 µM; actives 0.13% (n = 350,000); AID 602363, 2012;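 active = replicate mean at a twofold rise or more, about +100% in these data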;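 also: firefly luciferase made from a UUG start codon reports start codon fidelity; reporter light over untreated wells divided by growth signal over untreated wells; some hits fall short of that in this replicate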
Active calls of the source: *.

The opening two compounds, ahead of the listing:
Results for C[C@H](CO)N1C[C@H](C)[C@@H](CN(C)S(=O)(=O)c2ccccc2)Oc2cc(C#Cc3ccncc3)ccc2S1(=O)=O ?
esBAF inh: -6.1; E-sel inducer: -0.3; C2C12 statin: -42.8; PglD DTNB: 2.0; PGC1a acetyl inh: -9.9; Yeast UUG start: -10.6

What do the screens show for `COc1ccccc1N1CCN(c2ncc(C(=O)N3CCN(c4cccc(Cl)c4)CC3)c3ccccc23)CC1`?
PGC1a acetyl inh: 0.5

Results, repeating the preview:
Results for C[C@H](CO)N1C[C@H](C)[C@@H](CN(C)S(=O)(=O)c2ccccc2)Oc2cc(C#Cc3ccncc3)ccc2S1(=O)=O ?
esBAF inh: -6.1; E-sel inducer: -0.3; C2C12 statin: -42.8; PglD DTNB: 2.0; PGC1a acetyl inh: -9.9; Yeast UUG start: -10.6

What do the screens show for `COc1ccccc1N1CCN(c2ncc(C(=O)N3CCN(c4cccc(Cl)c4)CC3)c3ccccc23)CC1`?
PGC1a acetyl inh: 0.5

How did CCN1CCN(c2ncc(C(=O)Nc3cc(Cl)ccc3OC)c3ccccc23)CC1 do in these assays?
PglD DTNB: 5.6; PGC1a acetyl inh: 92.8*; Yeast UUG start: -0.8

Results for COc1cccc(NC(=O)CSc2nc(C)cs2)c1 ?
esBAF inh: 4.5; C2C12 statin: 108.6*; PglD DTNB: 2.8; PGC1a acetyl inh: 5.1; Yeast UUG start: 10.0

How did CCc1cccc(NC(=O)CSc2nc(C)cs2)c1 do in these assays?
esBAF inh: 81.7*; E-sel inducer: -2.2; C2C12 statin: -82.5; PglD DTNB: 7.1; PGC1a acetyl inh: -6.2; Yeast UUG start: -12.7

What do the screens show for `COc1ccc(NC(=O)CSc2nc(C)cs2)cc1OC`?
esBAF inh: -2.4; C2C12 statin: 6.8; PglD DTNB: -5.2; PGC1a acetyl inh: -12.0; Yeast UUG start: -18.8

Results for Cc1csc(SCC(=O)Nc2ccc(C)c(F)c2)n1 ?
esBAF inh: 16.8; E-sel inducer: -0.7; C2C12 statin: -1.3; PglD DTNB: 0.7; Yeast UUG start: 1.5

How did CCc1cccc(NC(=O)Nc2cccs2)c1 do in these assays?
esBAF inh: 58.7*; C2C12 statin: -8.4; PglD DTNB: 3.2; PGC1a acetyl inh: -10.8; Yeast UUG start: -15.9

How did O=C1O[C@@H](c2ccccc2)[C@@H](c2ccccc2)N2[C@@H](c3ccc(O)cc3)[C@]3(C(=O)Nc4ccc(C#CC5=CCCCC5)cc43)[C@@H](C(=O)O)[C@H]12 do in these assays?
PglD DTNB: 0.6; PGC1a acetyl inh: -3.4; Yeast UUG start: 4.7

What do the screens show for `O=S1(=O)CCN2C(c3ccco3)=CSC2=N1`?
esBAF inh: -7.8; C2C12 statin: 104.0*; PglD DTNB: -5.8; PGC1a acetyl inh: 4.0; Yeast UUG start: -1.3

What do the screens show for `O=S1(=O)CCN2C(c3ccc4c(c3)CCCC4)=CSC2=N1`?
esBAF inh: 12.0; C2C12 statin: 5.7; PglD DTNB: -5.2; PGC1a acetyl inh: -10.6; Yeast UUG start: -29.9

Results for O=C(Nc1ccc(F)cc1)N[C@H]1CC[C@@H](CCNS(=O)(=O)c2cccc(Cl)c2)O[C@@H]1CO ?
esBAF inh: 0.0; E-sel inducer: -0.5; C2C12 statin: -3.2; PglD DTNB: 1.9; PGC1a acetyl inh: 0.4; Yeast UUG start: -4.9

Results for COc1ccc(S(=O)(=O)N(CC(C)C)CC(C)C)c2cccnc12 ?
esBAF inh: 3.8; E-sel inducer: 0.0; C2C12 statin: 154.2*; PglD DTNB: -3.1; PGC1a acetyl inh: -8.4; Yeast UUG start: -10.6

What do the screens show for `COc1ccc(S(=O)(=O)N(C)c2ccccc2)c2cccnc12`?
esBAF inh: -3.1; C2C12 statin: 2.7; PglD DTNB: 12.8; PGC1a acetyl inh: 2.6; Yeast UUG start: -11.9

How did CCCCN(CCCC)S(=O)(=O)c1ccc(OC)c2ncccc12 do in these assays?
esBAF inh: 0.1; C2C12 statin: 65.7*; PglD DTNB: -2.2; PGC1a acetyl inh: -25.5; Yeast UUG start: -5.8

Results for CCN(Cc1ccccc1)S(=O)(=O)c1ccc(OC)c2ncccc12 ?
E-sel inducer: inconclusive; PglD DTNB: 2.4; PGC1a acetyl inh: -0.8; Yeast UUG start: -2.0

How did O/N=C/c1ccccc1Oc1ccccc1 do in these assays?
esBAF inh: -5.8; C2C12 statin: 85.9*; PglD DTNB: 5.0; PGC1a acetyl inh: 2.0; Yeast UUG start: -18.1

How did COc1ccc2c(c1)SCCC2=O do in these assays?
esBAF inh: -2.7; C2C12 statin: 17.8; PGC1a acetyl inh: -5.9

How did COc1cc2c(cc1OC)C(=O)CCS2 do in these assays?
esBAF inh: 7.7; C2C12 statin: 124.7*; PglD DTNB: 1.8; PGC1a acetyl inh: 7.6; Yeast UUG start: -12.1

What do the screens show for `O=C(c1ccc(O)cc1)c1ccc(O)cc1O`?
esBAF inh: 14.7; E-sel inducer: 5.4; PglD DTNB: -8.6; PGC1a acetyl inh: 7.4; Yeast UUG start: 1.2

Fetched by compound from above:
Results for COc1cccc(NC(=O)CSc2nc(C)cs2)c1 ?
esBAF inh: 4.5; C2C12 statin: 108.6*; PglD DTNB: 2.8; PGC1a acetyl inh: 5.1; Yeast UUG start: 10.0

Results for Cc1csc(SCC(=O)Nc2ccc(C)c(F)c2)n1 ?
esBAF inh: 16.8; E-sel inducer: -0.7; C2C12 statin: -1.3; PglD DTNB: 0.7; Yeast UUG start: 1.5

(continued)
How did CN(C)c1ccc(C(=O)c2ccc(O)cc2O)cc1 do in these assays?
esBAF inh: 55.0*; PglD DTNB: -6.3; PGC1a acetyl inh: -2.8; Yeast UUG start: -20.8

Results for COc1ccccc1CNC(=O)C[C@H]1CC[C@H](NC(=O)CN(C)C)[C@@H](CO)O1 ?
esBAF inh: -1.5; E-sel inducer: -0.2; C2C12 statin: -2.0; PglD DTNB: -1.5; PGC1a acetyl inh: -4.4; Yeast UUG start: -17.3

How did C[C@H](CO)N1C[C@H](C)[C@@H](CN(C)S(C)(=O)=O)OCCCC[C@H](C)Oc2ccc(NC(=O)Nc3ccc(F)cc3)cc2C1=O do in these assays?
esBAF inh: -1.7; E-sel inducer: 0.3; PglD DTNB: 0.6; PGC1a acetyl inh: 7.5; Yeast UUG start: 14.6

Results for CC(C)(C)c1cc(C(F)(F)F)c(C#N)c(=O)[nH]1 ?
esBAF inh: 0.6; C2C12 statin: 120.4*; PglD DTNB: -2.9; PGC1a acetyl inh: -3.6; Yeast UUG start: -10.3

What do the screens show for `Cc1cccc(CS(=O)(=O)c2ncc(Cl)c(C(=O)Nc3c(C)cccc3C)n2)c1`?
esBAF inh: -6.8; E-sel inducer: -0.1; C2C12 statin: 32.9; PglD DTNB: -6.3; Yeast UUG start: -21.6

How did Cc1cccc(C)c1NC(=O)c1nc(S(=O)(=O)Cc2ccccc2)ncc1Cl do in these assays?
esBAF inh: -54.6; C2C12 statin: 134.7*; PglD DTNB: 1.3; Yeast UUG start: -9.9

Results for C[C@H]1CN([C@@H](C)CO)C(=O)Cc2cc(NC(=O)c3ccncc3)ccc2O[C@H]1CN(C)S(=O)(=O)c1ccc(F)cc1 ?
esBAF inh: 1.9; E-sel inducer: -0.3; C2C12 statin: 11.0; PglD DTNB: -5.8; PGC1a acetyl inh: 3.3; Yeast UUG start: -19.4

How did Cc1ccc(/C(N)=N/OC(=O)CCc2ccccc2)cc1 do in these assays?
esBAF inh: 59.6*; C2C12 statin: -11.9; PglD DTNB: -0.6; PGC1a acetyl inh: 6.6; Yeast UUG start: -13.0

How did Cc1ccc(/C(N)=N/OC(=O)/C=C/c2ccccc2)cc1 do in these assays?
esBAF inh: 50.2*; C2C12 statin: 4.7; PglD DTNB: 6.6; PGC1a acetyl inh: 2.4; Yeast UUG start: -15.8

What do the screens show for `N/C(=N\OC(=O)CCCOc1ccccc1)c1ccc([N+](=O)[O-])cc1`?
PGC1a acetyl inh: 90.1*
